In the assay the test system is XIAP knockout (−/−) mouse embryonic fibroblasts (MEF) cells. The following applies: 24 hours; at much higher concentrations.

SMILES strings stand for the structures.

Consider `CN[C@@H](C)C(=O)Nc1ccc(Oc2ccc(OC)cc2)c(C(=O)NCc2csc(-c3cccs3)n2)c1` [Compound 3, (S)-2-(4-methoxyphenoxy)-5-(2-(methylamino)propanamido)-N-((2-(thiophen-2-yl)thiazol-4-yl)methyl)benzamide], for which the “killing of XIAP knockout (−/−) MEF cells” value is recorded as “still killed XIAP knockout (−/−) MEF cells”.
